Article PMC9502993 (Pharmaceuticals, 2022)

Tested on: HepG2 cells
Test: In Vitro Micronuclei Plus assay (flow cytometry)
Settings: positive and negative control

COc1cc2c(c(OC)c1OC)-c1ccc(OC)c(=O)cc1[C@@H](NC(C)=O)CC2 [colchicine]
genotoxicity by the criteria of OECD guideline 487: fulfilled all criteria
